Apparent affinities of Ab-14 variants for a coronavirus HR2 peptide

The measurements come from Engelhart et al. 2022 (doi:10.1038/s41597-022-01779-4) through the FLAb antibody collection.

The target is the same throughout: PDVDLGDISGINAS, from the HR2 region of SARS-CoV-2 spike.

Ab-14 is the parent antibody, in scFv form: VH, then a 15-residue (Gly4Ser)3 linker, then VL. The light chain is unchanged in all variants.
VH: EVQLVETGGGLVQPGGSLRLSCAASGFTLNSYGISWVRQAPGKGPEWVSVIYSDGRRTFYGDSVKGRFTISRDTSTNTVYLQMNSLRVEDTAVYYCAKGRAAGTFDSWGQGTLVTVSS
VL: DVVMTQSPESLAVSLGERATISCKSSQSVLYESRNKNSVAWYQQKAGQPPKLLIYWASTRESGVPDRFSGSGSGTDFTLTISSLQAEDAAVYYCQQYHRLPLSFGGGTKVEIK

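The starting antibody came from a phage panning campaign against this peptide. Library AAYL49 holds single substitutions and randomly drawn double and triple substitutions in the CDRs. In AlphaSeq, yeast of one mating type display the scFv and yeast of the other type display the target. After mating in shaken culture at 30 °C for 16 h, diploids were selected and their barcode pairs sequenced. A regression on co-assayed BCL2-family reference pairs converts the normalised counts of each replicate to an apparent Kd. Mating was done three times.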

Substitutions are numbered in sequence along the VH above, starting at 1 (not Kabat).
Numbers give log10(Kd / nM), so 0 is 1 nM and 3 is 1 µM. Smaller is tighter.
A mean of the replicates is given; it leaves out those without a signal.
Where no diploid with the target was found in that replicate, the entry reads "nd": below detection, most likely a poor binder, though not proof of it.
Background: pairings of library AAYL49 with three empty control strains gave a value in 15% of cases (median 4.06, 5th percentile 2.83). Values in that range, when seen in few replicates, are hard to tell from nonspecific mating. Also given: how often the same scFv was detected with the empty control strains, with their mean in brackets.

changes,"replicates, log10 nM",mean log10 Kd (nM),signal with controls
L29M G33M R100Y,nd / nd / nd,nd,1 of 9 (3.28)
Y32V I34G S107E,nd / nd / nd,nd,1 of 9 (3.14)
N30K S107F,1.33 / 1.61 / 1.23,1.39,1 of 9 (3.78)
R57V Y60K G61K,5.82 / nd / nd,5.82,2 of 9 (3.72)
L29V A101S,3.72 / 1.90 / 2.21,2.61,0 of 9
Y52M G99L G103L,nd / 4.04 / nd,4.04,0 of 9
I51D G99R S107N,3.76 / nd / 4.92,4.34,6 of 9 (4.14)
F27G V50R R100F,nd / nd / 3.43,3.43,0 of 9
F27E G103Y D106H,1.13 / 1.30 / 1.02,1.15,3 of 9 (4.93)
G26N V64H K65H,nd / nd / nd,nd,0 of 9
S53Q G55T R57L,nd / nd / nd,nd,1 of 9 (3.85)
G26F R56I G103I,2.78 / 3.07 / 3.79,3.21,0 of 9
Y32K S53V G55F,3.96 / nd / nd,3.96,6 of 9 (4.43)
V50H D62E S107R,4.32 / nd / nd,4.32,5 of 9 (4.05)
L29A F59S A101G,3.57 / 2.82 / 2.28,2.89,2 of 9 (4.35)
Y32R V64L R100S,nd / nd / nd,nd,1 of 9 (4.90)
I34W I51K G99D,6.22 / nd / 5.19,5.70,4 of 9 (4.21)
Y32L G33K A101S,nd / 3.90 / nd,3.90,0 of 9
V50G G55T K65T,4.22 / nd / nd,4.22,0 of 9
V50R R57L G61H,3.34 / 3.99 / nd,3.67,3 of 9 (3.40)
G99P R100K T104D,nd / nd / nd,nd,0 of 9
Y32L I34H A101F,nd / nd / nd,nd,1 of 9 (3.74)
D54F K65Q F105S,nd / 2.87 / nd,2.87,1 of 9 (3.78)
G61N K65V G103T,5.23 / 5.07 / nd,5.15,5 of 9 (4.08)
S31H I51P F59Q,nd / nd / nd,nd,0 of 9
R100T D106H,2.05 / nd / nd,2.05,0 of 9
G26T,5.66 / 5.17 / 4.08,4.97,6 of 9 (4.22)
S31P I51P D62H,6.20 / 4.66 / 6.08,5.65,5 of 9 (4.22)
S35Q Y60L V64L,nd / nd / nd,nd,0 of 9
R56V V64C,1.50 / 1.62 / 1.74,1.62,1 of 9 (3.07)
G26L G55D V64P,nd / nd / nd,nd,0 of 9
G26W V64Y F105L,nd / 3.02 / nd,3.02,1 of 9 (5.16)
L29D S35T Y60A,nd / nd / nd,nd,0 of 9
K65F G99A A101V,2.88 / 2.72 / 1.79,2.46,1 of 9 (3.99)
S31W I51P S53F,nd / 3.85 / 3.67,3.76,4 of 9 (4.14)
I51V G55Y G99I,nd / nd / 3.82,3.82,2 of 9 (4.49)
S53V G55V S107P,nd / nd / nd,nd,1 of 9 (4.51)
L29Q S35L S107A,4.54 / nd / 4.94,4.74,3 of 9 (4.20)
V50W R57G K65R,nd / nd / nd,nd,2 of 9 (3.30)
L29Y V50L G55I,nd / 3.08 / 3.43,3.26,0 of 9
F27R D62G V64Y,nd / nd / nd,nd,1 of 9 (5.06)

The first 6 variants above that were never detected:

{"changes": "L29M G33M R100Y", "replicates, log10 nM": "nd / nd / nd", "mean log10 Kd (nM)": "nd", "signal with controls": "1 of 9 (3.28)"}
{"changes": "Y32V I34G S107E", "replicates, log10 nM": "nd / nd / nd", "mean log10 Kd (nM)": "nd", "signal with controls": "1 of 9 (3.14)"}
{"changes": "G26N V64H K65H", "replicates, log10 nM": "nd / nd / nd", "mean log10 Kd (nM)": "nd", "signal with controls": "0 of 9"}
{"changes": "S53Q G55T R57L", "replicates, log10 nM": "nd / nd / nd", "mean log10 Kd (nM)": "nd", "signal with controls": "1 of 9 (3.85)"}
{"changes": "Y32R V64L R100S", "replicates, log10 nM": "nd / nd / nd", "mean log10 Kd (nM)": "nd", "signal with controls": "1 of 9 (4.90)"}
{"changes": "G99P R100K T104D", "replicates, log10 nM": "nd / nd / nd", "mean log10 Kd (nM)": "nd", "signal with controls": "0 of 9"}